{"source": "PubChem BioAssay (NCI)", "experiment_in_all_cases": "NCI anticancer screen, dose series, 48 h", "key": {"[1]": {"tested_on": "SF-295 CNS"}, "[2]": {"tested_on": "SNB-19 CNS"}, "[3]": {"tested_on": "NCI/ADR-RES ovarian"}, "[4]": {"tested_on": "LOX IMVI melanoma"}, "[5]": {"tested_on": "OVCAR-8 ovarian"}, "[6]": {"tested_on": "HOP-62 NSCLC"}, "[7]": {"tested_on": "RXF 393 renal"}, "[8]": {"tested_on": "MALME-3M melanoma"}, "[9]": {"tested_on": "IGROV1 ovarian"}, "[10]": {"tested_on": "UO-31 renal"}, "[11]": {"tested_on": "NCI-H522 lung"}, "[12]": {"tested_on": "MCF7 breast"}, "[13]": {"tested_on": "SK-MEL-5 melanoma"}, "[14]": {"tested_on": "HT29 colon"}, "[15]": {"tested_on": "HCT-15 colon"}, "[16]": {"tested_on": "SK-MEL-28 melanoma"}, "[17]": {"tested_on": "PC-3 prostate"}, "[18]": {"tested_on": "SN12C renal"}, "[19]": {"tested_on": "CAKI-1 renal"}, "[20]": {"tested_on": "HL-60(TB) leukemia"}, "[21]": {"tested_on": "CCRF-CEM leukemia"}, "[22]": {"tested_on": "NCI-H226 lung"}, "[23]": {"tested_on": "SF-539 CNS"}, "[24]": {"tested_on": "SK-OV-3 ovarian"}, "[25]": {"tested_on": "DU-145 prostate"}, "[26]": {"tested_on": "EKVX NSCLC"}}, "note": "Some of these compounds have results that are not shown, active ones among them.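 Protocol summary: plate cells (96-well), add compound at 5 concentrations, incubate 48 h, interpolate endpoints linearly. GI50 is the concentration that inhibits growth by half. Definition used: TGI = concentration required for complete inhibition of growth.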", "data": [{"smiles": "C=C(C)C(O)(C(=O)OC1C2CCN(CC2)C1C)c1ccccc1", "note": "(configuration not stated)", "values": [{"measurement": "GI50", "setting": "[1]", "result": "> 100", "unit": "µM"}, {"measurement": "TGI", "setting": "[1]", "result": "> 100", "unit": "µM"}, {"measurement": "GI50", "setting": "[2]", "result": "> 100", "unit": "µM"}, {"measurement": "TGI", "setting": "[2]", "result": "> 100", "unit": "µM"}, {"measurement": "GI50", "setting": "[3]", "result": 35.3, "unit": "µM"}, {"measurement": "TGI", "setting": "[3]", "result": 96.4, "unit": "µM"}, {"measurement": "GI50", "setting": "[4]", "result": "> 100", "unit": "µM"}, {"measurement": "TGI", "setting": "[4]", "result": "> 100", "unit": "µM"}, {"measurement": "GI50", "setting": "[5]", "result": "> 100", "unit": "µM"}, {"measurement": "TGI", "setting": "[5]", "result": "> 100", "unit": "µM"}, {"measurement": "GI50", "setting": "[6]", "result": "> 100", "unit": "µM"}, {"measurement": "TGI", "setting": "[6]", "result": "> 100", "unit": "µM"}, {"measurement": "GI50", "setting": "[7]", "result": "> 100", "unit": "µM"}, {"measurement": "TGI", "setting": "[7]", "result": "> 100", "unit": "µM"}, {"measurement": "GI50", "setting": "[8]", "result": "> 100", "unit": "µM"}, {"measurement": "TGI", "setting": "[8]", "result": "> 100", "unit": "µM"}, {"measurement": "GI50", "setting": "[9]", "result": "> 100", "unit": "µM"}, {"measurement": "TGI", "setting": "[9]", "result": "> 100", "unit": "µM"}, {"measurement": "GI50", "setting": "[10]", "result": 29.6, "unit": "µM"}, {"measurement": "TGI", "setting": "[10]", "result": "> 100", "unit": "µM"}, {"measurement": "GI50", "setting": "[11]", "result": "> 100", "unit": "µM"}, {"measurement": "TGI", "setting": "[11]", "result": "> 100", "unit": "µM"}, {"measurement": "GI50", "setting": "[12]", "result": "> 100", "unit": "µM"}, {"measurement": "TGI", "setting": "[12]", "result": "> 100", "unit": "µM"}, {"measurement": "GI50", "setting": "[13]", "result": "> 100", "unit": "µM"}, {"measurement": "TGI", "setting": "[13]", "result": "> 100", "unit": "µM"}, {"measurement": "GI50", "setting": "[14]", "result": "> 100", "unit": "µM"}, {"measurement": "TGI", "setting": "[14]", "result": "> 100", "unit": "µM"}, {"measurement": "GI50", "setting": "[15]", "result": "> 100", "unit": "µM"}, {"measurement": "TGI", "setting": "[15]", "result": "> 100", "unit": "µM"}, {"measurement": "GI50", "setting": "[16]", "result": "> 100", "unit": "µM"}, {"measurement": "TGI", "setting": "[16]", "result": "> 100", "unit": "µM"}, {"measurement": "GI50", "setting": "[17]", "result": "> 100", "unit": "µM"}, {"measurement": "TGI", "setting": "[17]", "result": "> 100", "unit": "µM"}, {"measurement": "GI50", "setting": "[18]", "result": "> 100", "unit": "µM"}, {"measurement": "TGI", "setting": "[18]", "result": "> 100", "unit": "µM"}, {"measurement": "GI50", "setting": "[19]", "result": "> 100", "unit": "µM"}, {"measurement": "TGI", "setting": "[19]", "result": "> 100", "unit": "µM"}, {"measurement": "GI50", "setting": "[20]", "result": 43.4, "unit": "µM"}, {"measurement": "TGI", "setting": "[20]", "result": "> 100", "unit": "µM"}, {"measurement": "GI50", "setting": "[21]", "result": "> 100", "unit": "µM"}, {"measurement": "TGI", "setting": "[21]", "result": "> 100", "unit": "µM"}, {"measurement": "GI50", "setting": "[22]", "result": "> 100", "unit": "µM"}, {"measurement": "TGI", "setting": "[22]", "result": "> 100", "unit": "µM"}, {"measurement": "GI50", "setting": "[23]", "result": "> 100", "unit": "µM"}, {"measurement": "TGI", "setting": "[23]", "result": "> 100", "unit": "µM"}, {"measurement": "GI50", "setting": "[24]", "result": "> 100", "unit": "µM"}, {"measurement": "TGI", "setting": "[24]", "result": "> 100", "unit": "µM"}, {"measurement": "GI50", "setting": "[25]", "result": "> 100", "unit": "µM"}, {"measurement": "TGI", "setting": "[25]", "result": "> 100", "unit": "µM"}, {"measurement": "GI50", "setting": "[26]", "result": "> 100", "unit": "µM"}, {"measurement": "TGI", "setting": "[26]", "result": "> 100", "unit": "µM"}]}]}
